AlphaSeq binding of Ab-91 heavy chain variants to a spike HR2 peptide

Target: peptide PDVDLGDISGINAS, taken from heptad repeat 2 (HR2) of SARS-CoV-2 spike.

The variants keep the light chain, the linker and the frameworks of Ab-91 (scFv order VL, a 15-residue (Gly4Ser)3 linker, VH).
VL: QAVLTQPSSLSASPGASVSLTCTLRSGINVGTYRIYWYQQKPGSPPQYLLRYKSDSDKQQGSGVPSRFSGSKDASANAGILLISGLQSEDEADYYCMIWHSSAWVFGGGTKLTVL
VH: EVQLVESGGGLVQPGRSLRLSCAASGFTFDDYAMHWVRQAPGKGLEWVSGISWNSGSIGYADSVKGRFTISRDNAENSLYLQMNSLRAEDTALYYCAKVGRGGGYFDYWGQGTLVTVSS

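The parent was found by panning a naive human phage display library on the peptide. Library AAYL51 holds single substitutions and randomly drawn double and triple substitutions in the CDRs. AlphaSeq pools MATa yeast showing the antibodies with MATalpha yeast showing the peptide. Binding brings cells together so that they mate, and sequencing counts the barcode pairs among the diploids. Read counts were normalised to the haploid input and turned into Kd by a linear fit to BCL2-family pairs of known affinity, for each replicate. There are three technical replicates.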

Variants are written as CDR1, CDR2 and CDR3 of the heavy chain (limits as in the source). Parent: GFTFDDYAMH, GISWNSGSIGYADSVK, VGRGGGYFDY.
This list gathers variants with a substitution at W53 (VH, numbered from residue 1).
The Kd shown is the geometric mean over detected replicates; a lower Kd is a better binder.
Where no diploid with the target was found in any replicate, the entry reads "no signal": below detection, most likely a poor binder, though not proof of it.
The list is sorted by this average, lowest first, undetected variants last.
Three control strains display no target. For library AAYL51, 21% of the pairings with them gave a signal, with a median of 34 µM and one signal in twenty below 1.8 µM, so weak values seen in few replicates may be background.

| CDR-H1 | CDR-H2 | CDR-H3 | apparent Kd | seen in |
|---|---|---|---|---|
| GFTFDDYAMH | GISYNSGSIAYADSVK | VGRGGGWFDY | 1.7 nM | 3 of 3 |
| GFTFDDYAMH | GISTNSGSIGYADSVK | VGRGGGYFIY | 10 nM | 3 of 3 |
| GFFFDDYAMH | GISSNSGSIGYADVVK | VGRGGGYFDY | 32 nM | 3 of 3 |
| GFTFDDYAMH | GISVNSGSIGYADIVT | VGRGGGYFDY | 35 nM | 3 of 3 |
| GFTFEDYAMH | GISANSGSIGYADSKK | VGRGGGYFDY | 71 nM | 3 of 3 |
| GFTFDDYAMH | GISLNSGFIGYADSVK | VGYGGGYFDY | 81 nM | 3 of 3 |
| GFTFDDYAMH | GISFNQGSIGYADSVK | VGRGGGYFDY | 100 nM | 2 of 3 |
| GFQFDDYAMH | GISNNSGSVGYADSVK | VGRGGGYFDY | 370 nM | 3 of 3 |
| GFKFDDYAIH | GISCNSGSIGYADSVK | VGRGGGYFDY | 370 nM | 3 of 3 |
| GFPFDDYAMH | GISLNSGSIGYADSVK | VGRGGGYFDL | 400 nM | 3 of 3 |
| GFTFDDNAMH | GISRNSGSIGYADMVK | VGRGGGYFDY | 510 nM | 2 of 3 |
| GFTFDDYAMH | GISQNSGSIGYAGSVK | VGRGVGYFDY | 1.1 µM | 3 of 3 |
| GFTFDDYAMH | GISRNSGSIGYADSVK | VGDGGGYKDY | 1.6 µM | 3 of 3 |
| GFTFDDYAMH | GISNNSGSKAYADSVK | VGRGGGYFDY | 2.5 µM | 1 of 3 |
| GFTFDDYAMG | GISVNSGSIGYADSVC | VGRGGGYFDY | 2.8 µM | 1 of 3 |
| GFTFDDYAMH | GISRNSGSIGYADSVK | VGRGGGYVDK | 5.1 µM | 3 of 3 |
| GFTFDDYAMR | GISMNSGSIWYADSVK | VGRGGGYFDY | 5.3 µM | 2 of 3 |
| GFTFADYAMH | GISYNSGSIGYADSVK | VGRGGGFFDY | 6.1 µM | 3 of 3 |
| GDTFDDYAMH | GISCNSGSIGYADSVK | VGRGGGYFDF | 7.2 µM | 1 of 3 |
| GFTFDDYAMH | GISRNSGSNGYADIVK | VGRGGGYFDY | 13 µM | 3 of 3 |
| GFTFDDYAMH | GISCNSRSIGYADSVM | VGRGGGYFDY | 14 µM | 1 of 3 |
| GATFDDYAMH | GISKNSGSDGYADSVK | VGRGGGYFDY | 15 µM | 2 of 3 |
| GFTFDDYAMH | GISTNSGSIGYADSVK | VRRGGGYRDY | 31 µM | 1 of 3 |
| GFTFDDYAMH | GISENSGSIGYADSVQ | VQRGGGYFDY | 47 µM | 1 of 3 |
| GFTFDDYAMH | GILVNSGWIGYADSVK | VGRGGGYFDY | 55 µM | 1 of 3 |
| GFTFDDYAMH | GISFNSASIGYADSVK | VMRGGGYFDY | 60 µM | 1 of 3 |
| QFTFDDYAMH | GISHNSGSIGYADSVK | VGRGGGYPDY | 75 µM | 1 of 3 |
| GFTFDDYAMF | GISRNSGSIGYADSVK | VIRGGGYFDY | 77 µM | 1 of 3 |
| GFTFDDYAMH | GISLNSGSMGYGDSVK | VGRGGGYFDY | 86 µM | 2 of 3 |
| GFTFDDYAMH | GESSNSGSIGYADSVK | VGRGGGYFDY | 86 µM | 2 of 3 |
| GFTFDDYARH | GISHNSGSIGYADSVK | VGRGGGYFFY | 100 µM | 1 of 3 |
| GFTFDDYAMH | GIHPNSGSIGVADSVK | VGRGGGYFDY | 110 µM | 3 of 3 |
| GFTFDDYAMH | GHSINSGSIGYADSVK | VGRGGGYFDI | 110 µM | 1 of 3 |
| GFTFDDYAMH | GISHRSGSIGYADSVK | VGRGGGYFDP | 120 µM | 1 of 3 |
| GFTFDDYAMH | KISFNSGSIGPADSVK | VGRGGGYFDY | 140 µM | 3 of 3 |
| GFTFDDYAMH | GISGSSGSIGYADSQK | VGRGGGYFDY | 170 µM | 2 of 3 |
| GFTFDDYAMH | GISINSGQIGYADSVK | VGRGGGYFDY | 230 µM | 3 of 3 |
| GFTFDDYAMM | GISGNSGSIGYGDSVK | VGRGGGYFDY | 290 µM | 3 of 3 |
| GFTFDDYAMH | GISGNSGSIGYADSVK | VGRGGGTFDN | 320 µM | 3 of 3 |
| GFTFDDYAMH | GIWKNSGSIGYADGVK | VGRGGGYFDY | 430 µM | 3 of 3 |
| GFTFDDYAMH | GIKVNSGSIGVADSVK | VGRGGGYFDY | 590 µM | 2 of 3 |
| GFTFDDYAMH | GKSMNSGSIGYADSVK | VGRGGGYFDY | 610 µM | 1 of 3 |
| GFTFDDYAMH | GGSNNSGSIGYADSVK | VGRAGGYFDY | no signal | 0 of 3 |
| GFTFDDYEMH | GISINSGSIGYADSVK | VGRGYGYFDY | no signal | 0 of 3 |
| GFTFDDYKMH | GISCNSGSIGYAASVK | VGRGGGYFDY | no signal | 0 of 3 |
| GFTFDDYAMH | GISKNSGSIGYADSVY | VGRGGGYADY | no signal | 0 of 3 |
| GFTFDDYAMH | GISYNSGSIGYADSAC | VGRGGGYFDY | no signal | 0 of 3 |
| EFTFDDYAMH | GITGNSGSIGYADSVK | VGRGGGYFDY | no signal | 0 of 3 |
| GFTFDDYAMH | GISMNSGSIGYADSVK | VGFGAGYFDY | no signal | 0 of 3 |
| GFTFDDFAMH | GISINSGSIGYHDSVK | VGRGGGYFDY | no signal | 0 of 3 |
| GFTFDDYAMH | GISDNSGSDGYADSVK | IGRGGGYFDY | no signal | 0 of 3 |
| GFTFDDYAMH | GISKNSGSIGYADSAK | NGRGGGYFDY | no signal | 0 of 3 |
| GFTFDDYIMH | GISANSGSIGYADSVK | VGRGGGDFDY | no signal | 0 of 3 |
| WFTFDDYAMH | GISVNSGSIGYADSVK | VGRGLGYFDY | no signal | 0 of 3 |
| GFTFDDYAMH | GISTNSGSKGYADSVK | VGRNGGYFDY | no signal | 0 of 3 |
| WFTFDDYAMH | GISENSGSIGYADSVK | VGRGGSYFDY | no signal | 0 of 3 |
| GFTFDDYAMH | GGSMNSGSIGYADSVK | VGRGGGYFDY | no signal | 0 of 3 |
| GFTFDDYAMH | GTSYHSGSIGYADSVK | VGRGGGYFDY | no signal | 0 of 3 |
| GLTFDDYAMH | GISPNSGSIGYADSVK | VGRGGGYFKY | no signal | 0 of 3 |
| GFTFDDYAMH | GISRNSGSIGYADSVK | IIRGGGYFDY | no signal | 0 of 3 |
| GFTFDDYAMH | GISPNSHSIGYACSVK | VGRGGGYFDY | no signal | 0 of 3 |
| GFTFDDYAMH | GISRISGSIGYADSVK | YGRGGGYFDY | no signal | 0 of 3 |
| GFTFDDYAGH | GISHNSGSIGYADSVK | VWRGGGYFDY | no signal | 0 of 3 |
| GFTFDDYAMH | GISYNYGSIGSADSVK | VGRGGGYFDY | no signal | 0 of 3 |
| GFTFDDYAMH | GISLNSGSIGYADSVK | VGRGGGYFDY | no signal | 0 of 3 |
| GFTFDDYAMT | GISFNSGSIGYADSVK | VGRGGGYFIY | no signal | 0 of 3 |

The last 7 entries again:

| CDR-H1 | CDR-H2 | CDR-H3 | apparent Kd | seen in |
|---|---|---|---|---|
| GFTFDDYAMH | GISRNSGSIGYADSVK | IIRGGGYFDY | no signal | 0 of 3 |
| GFTFDDYAMH | GISPNSHSIGYACSVK | VGRGGGYFDY | no signal | 0 of 3 |
| GFTFDDYAMH | GISRISGSIGYADSVK | YGRGGGYFDY | no signal | 0 of 3 |
| GFTFDDYAGH | GISHNSGSIGYADSVK | VWRGGGYFDY | no signal | 0 of 3 |
| GFTFDDYAMH | GISYNYGSIGSADSVK | VGRGGGYFDY | no signal | 0 of 3 |
| GFTFDDYAMH | GISLNSGSIGYADSVK | VGRGGGYFDY | no signal | 0 of 3 |
| GFTFDDYAMT | GISFNSGSIGYADSVK | VGRGGGYFIY | no signal | 0 of 3 |

Values reported by Engelhart et al. 2022, doi:10.1038/s41597-022-01779-4 (FLAb copy).